{"sequences": {"note": "Amino acid sequences for entries named in this document (tags omitted). Residues count along the entry.", "UniProt O15496, 43-165 limits assumed": "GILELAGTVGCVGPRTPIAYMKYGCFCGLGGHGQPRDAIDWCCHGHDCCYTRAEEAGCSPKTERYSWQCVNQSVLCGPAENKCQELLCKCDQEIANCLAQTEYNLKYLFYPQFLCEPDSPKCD"}, "source": "patent US20040102442A1", "about": "“Remedies for alzheimer's disease” (priority 2000, published 2004)", "molecular_target": "Human type-X sPLA2 (Homo sapiens, UniProt O15496)", "assay": "type-X sPLA2 inhibition test (chromogenic assay, diheptanoylthio PC)", "conditions": "diheptanoylthio PC 1 mM, Triton X-100 0.3 mM, 30 min at 40° C., absorbance at 405 nm", "data": [{"smiles": "NC(=O)C1=CCCc2c1c1c(OCC(=O)O)cccn1c2Cc1ccccc1", "values": [{"measurement": "IC50", "result": 5, "unit": "nM"}]}]}
